Assay results as given in patent publication US20180127465A1 (priority 2015, published 2018).
Some compounds may have been tested in ways that are not shown here.

Protein sequences, listed by entry. Tags and fused reporters are not part of them.
UniProt P33535, whole entry: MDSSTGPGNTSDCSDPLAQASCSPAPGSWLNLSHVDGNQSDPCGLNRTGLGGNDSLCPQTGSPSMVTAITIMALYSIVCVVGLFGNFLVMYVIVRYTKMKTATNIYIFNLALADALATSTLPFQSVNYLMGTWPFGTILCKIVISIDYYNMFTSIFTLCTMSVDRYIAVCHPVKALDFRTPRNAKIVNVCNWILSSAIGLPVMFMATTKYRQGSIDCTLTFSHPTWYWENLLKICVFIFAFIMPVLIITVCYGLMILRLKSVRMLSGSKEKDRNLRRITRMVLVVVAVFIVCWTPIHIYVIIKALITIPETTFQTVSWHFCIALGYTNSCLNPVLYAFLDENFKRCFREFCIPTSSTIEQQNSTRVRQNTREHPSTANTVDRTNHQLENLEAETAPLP
UniProt P41143, whole entry: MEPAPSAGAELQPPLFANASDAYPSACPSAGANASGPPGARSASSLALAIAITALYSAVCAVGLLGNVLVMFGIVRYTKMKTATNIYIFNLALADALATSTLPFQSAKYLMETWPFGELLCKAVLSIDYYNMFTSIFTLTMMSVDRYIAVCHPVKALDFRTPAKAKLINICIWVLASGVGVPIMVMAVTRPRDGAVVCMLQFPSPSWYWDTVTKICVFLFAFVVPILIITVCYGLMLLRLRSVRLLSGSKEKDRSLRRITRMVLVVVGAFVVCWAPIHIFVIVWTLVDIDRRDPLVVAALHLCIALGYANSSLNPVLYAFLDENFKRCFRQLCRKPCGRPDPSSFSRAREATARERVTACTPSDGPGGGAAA

Experiments:
MOR = MOR (Rattus norvegicus, UniProt P33535); assay: Radioligand competition binding at MOR ([3H]DAMGO); conditions: read-out: Ki MOR, Table 6, Kd=0.85 nM, membranes of transfected HNB9.10 cells
KOR [1] = molecular target: T1, KOR (Homo sapiens, UniProt P41145); assay: [35S]GTP-γ-S binding assay, antagonist mode, hKOR; conditions: Table 6; % relative to 10 μM naloxone inhibition of 100 nM U50,488
KOR [2] = molecular target: T1, KOR; assay: Radioligand competition binding at KOR ([3H]U69,593), Table 6; conditions: read-out: Ki KOR, [3H]U69,593, Kd=5.3 nM, membranes of transfected HNB9.10 cells
DOR = DOR (Homo sapiens, UniProt P41143); assay: Radioligand competition binding at DOR ([3H]DPDPE); conditions: read-out: Ki DOR, Table 6, Kd=0.50 nM, membranes of transfected HNB9.10 cells
KOR [3] = molecular target: T1, KOR; assay: [35S]GTP-γ-S binding assay, agonist mode, hKOR; conditions: for activity at KOR in words: [35S]GTPγS, KOR agonist and antagonist modes
KOR [4] = molecular target: T1, KOR; assay: Radioligand binding at KOR ([3H]Nor-BNI), Table 3; conditions: read-out: Ki KOR [3H]Nor-BNI

Compound | Ki (MOR) [nM] | KOR [35S]GTPγS-binding Imax (KOR [1]) [%] | Ki (KOR [2]) [nM] | Ki (DOR) [nM] | activity at KOR in words (KOR [3]) | Ki (KOR [4]) [nM] | KOR function (KOR [3]; Table 6, summary in words from binding and agonist/antagonist modes)
CCCC[C@@H](NC(=O)[C@@H](N)Cc1c(C)cc(O)cc1C)C(=O)NCC(=O)N[C@@H](Cc1ccc(Cl)cc1)C(N)=O | 2.9 | 60 | 156 | 0.61 | partial agonist/antagonist activities |  | 
CCCC[C@@H](NC(=O)[C@@H](N)Cc1c(C)cc(O)cc1C)C(=O)NCC(=O)N[C@@H](Cc1ccc(F)cc1)C(N)=O | 4.5 |  |  | 0.99 | partial agonist/antagonist activities |  | 
CCCC[C@@H](NC(=O)[C@@H](N)Cc1c(C)cc(O)cc1C)C(=O)NCC(=O)N[C@@H](Cc1ccc(Cl)cc1)C(=O)N1CCC(N(C(=O)CC)c2ccccc2)CC1 |  | 122 |  |  |  |  | 
CCCC[C@@H](NC(=O)[C@@H](N)Cc1c(C)cc(O)cc1C)C(=O)NCC(=O)N[C@@H](Cc1ccccc1)C(N)=O | 1.1 |  | 3.4 | 0.25 | partial agonist | 3.4 | partial agonist
